#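 These data come from cells grown in 96-well plates and exposed to compound for 48 hours at five concentrations. The concentration for 50% growth inhibition is given as GI50. At the TGI there is no net growth.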
# Legend:
# Assay in all cases: inhibition of tumour cell growth, NCI panel, 48 h
# 786-0 renal = system: 786-0 renal
# A498 renal = system: A498 renal
# A549 NSCLC = system: A549 NSCLC
# ACHN renal = system: ACHN renal
# CCRF-CEM leukemia = system: CCRF-CEM leukemia
# DLD-1 colon = system: DLD-1 colon
# DMS 114 small cell lung = system: DMS 114 small cell lung
# EKVX NSCLC = system: EKVX NSCLC
# HCC-2998 colon = system: HCC-2998 colon
# HCT-116 colon = system: HCT-116 colon
# HCT-15 colon = system: HCT-15 colon
# HL-60(TB) leukemia = system: HL-60(TB) leukemia
# HOP-18 NSCLC = system: HOP-18 NSCLC
# HOP-62 NSCLC = system: HOP-62 NSCLC
# HT29 colon = system: HT29 colon
# IGROV1 ovarian = system: IGROV1 ovarian
# K-562 leukemia = system: K-562 leukemia
# KM12 colon = system: KM12 colon
# KM20L2 colon = system: KM20L2 colon
# LOX IMVI melanoma = system: LOX IMVI melanoma
# LXFL 529 NSCLC = system: LXFL 529 NSCLC
# M14 melanoma = system: M14 melanoma
# M19-MEL melanoma = system: M19-MEL melanoma
# MALME-3M melanoma = system: MALME-3M melanoma
# MOLT-4 leukemia = system: MOLT-4 leukemia
# NCI-H23 lung = system: NCI-H23 lung
# NCI-H322M lung = system: NCI-H322M lung
# NCI-H460 lung = system: NCI-H460 lung
# OVCAR-3 ovarian = system: OVCAR-3 ovarian
# OVCAR-4 ovarian = system: OVCAR-4 ovarian
# OVCAR-8 ovarian = system: OVCAR-8 ovarian
# RPMI-8226 leukemia = system: RPMI-8226 leukemia
# RXF 393 renal = system: RXF 393 renal
# SF-268 CNS = system: SF-268 CNS
# SF-295 CNS = system: SF-295 CNS
# SF-539 CNS = system: SF-539 CNS
# SK-MEL-28 melanoma = system: SK-MEL-28 melanoma
# SK-OV-3 ovarian = system: SK-OV-3 ovarian
# SN12C renal = system: SN12C renal
# SNB-19 CNS = system: SNB-19 CNS
# SNB-75 CNS = system: SNB-75 CNS
# SNB-78 CNS = system: SNB-78 CNS
# SR leukemia = system: SR leukemia
# SW-620 colon = system: SW-620 colon
# TK-10 renal = system: TK-10 renal
# U251 CNS = system: U251 CNS
# UACC-257 melanoma = system: UACC-257 melanoma
# UACC-62 melanoma = system: UACC-62 melanoma
# UO-31 renal = system: UO-31 renal
# XF 498 CNS = system: XF 498 CNS
compound,measurement,setting,value
Cc1[nH]c2c(C)c([N+](=O)[O-])c(C)c([N+](=O)[O-])c2c1[N+](=O)[O-],GI50,786-0 renal,11.3 µM
same,TGI,786-0 renal,24.2 µM
same,GI50,A498 renal,4.77 µM
same,TGI,A498 renal,19.1 µM
same,GI50,A549 NSCLC,5.68 µM
same,TGI,A549 NSCLC,35.7 µM
same,GI50,ACHN renal,7.39 µM
same,TGI,ACHN renal,39.7 µM
same,GI50,CCRF-CEM leukemia,4.41 µM
same,TGI,CCRF-CEM leukemia,28 µM
same,GI50,DLD-1 colon,11.8 µM
same,TGI,DLD-1 colon,25.8 µM
same,GI50,DMS 114 small cell lung,3.26 µM
same,TGI,DMS 114 small cell lung,14.2 µM
same,GI50,EKVX NSCLC,4.23 µM
same,TGI,EKVX NSCLC,19.1 µM
same,GI50,HCC-2998 colon,4.19 µM
same,TGI,HCC-2998 colon,16.3 µM
same,GI50,HCT-116 colon,5.98 µM
same,TGI,HCT-116 colon,20.2 µM
same,GI50,HCT-15 colon,4.98 µM
same,TGI,HCT-15 colon,18.4 µM
same,TGI,HL-60(TB) leukemia,21.8 µM
same,GI50,HOP-18 NSCLC,2.39 µM
same,TGI,HOP-18 NSCLC,11.3 µM
same,GI50,HOP-62 NSCLC,11.9 µM
same,TGI,HOP-62 NSCLC,24.3 µM
same,GI50,HT29 colon,7.72 µM
same,TGI,HT29 colon,27.2 µM
same,GI50,IGROV1 ovarian,5.11 µM
same,TGI,IGROV1 ovarian,21.2 µM
same,GI50,K-562 leukemia,5.83 µM
same,TGI,K-562 leukemia,30.9 µM
same,GI50,KM12 colon,10.5 µM
same,TGI,KM12 colon,23 µM
same,GI50,KM20L2 colon,6.8 µM
same,TGI,KM20L2 colon,25.9 µM
same,GI50,LOX IMVI melanoma,4.61 µM
same,TGI,LOX IMVI melanoma,16.6 µM
same,GI50,LXFL 529 NSCLC,9.51 µM
same,TGI,LXFL 529 NSCLC,31.7 µM
same,GI50,M14 melanoma,13.4 µM
same,TGI,M14 melanoma,27.2 µM
same,GI50,M19-MEL melanoma,10 µM
same,TGI,M19-MEL melanoma,22.6 µM
same,GI50,MALME-3M melanoma,5.21 µM
same,TGI,MALME-3M melanoma,23.5 µM
same,GI50,MOLT-4 leukemia,4.63 µM
same,TGI,MOLT-4 leukemia,22 µM
same,GI50,NCI-H23 lung,3.49 µM
same,TGI,NCI-H23 lung,12.2 µM
same,GI50,NCI-H322M lung,11 µM
same,TGI,NCI-H322M lung,29.4 µM
same,GI50,NCI-H460 lung,10.5 µM
same,TGI,NCI-H460 lung,24.3 µM
same,GI50,OVCAR-3 ovarian,3.27 µM
same,TGI,OVCAR-3 ovarian,16.6 µM
same,GI50,OVCAR-4 ovarian,10 µM
same,TGI,OVCAR-4 ovarian,28.8 µM
same,GI50,OVCAR-8 ovarian,6.13 µM
same,TGI,OVCAR-8 ovarian,22.9 µM
same,GI50,RPMI-8226 leukemia,3.66 µM
same,TGI,RPMI-8226 leukemia,17.7 µM
same,GI50,RXF 393 renal,9.59 µM
same,TGI,RXF 393 renal,21.9 µM
same,GI50,SF-268 CNS,6.16 µM
same,GI50,SF-295 CNS,6.2 µM
same,TGI,SF-295 CNS,19.1 µM
same,GI50,SF-539 CNS,10.4 µM
same,TGI,SF-539 CNS,22.3 µM
same,GI50,SK-MEL-28 melanoma,6.49 µM
same,TGI,SK-MEL-28 melanoma,20.3 µM
same,GI50,SK-OV-3 ovarian,14.4 µM
same,TGI,SK-OV-3 ovarian,29.3 µM
same,GI50,SN12C renal,11.8 µM
same,TGI,SN12C renal,27.3 µM
same,GI50,SNB-19 CNS,6.34 µM
same,TGI,SNB-19 CNS,21.5 µM
same,GI50,SNB-75 CNS,16.3 µM
same,TGI,SNB-75 CNS,30 µM
same,GI50,SNB-78 CNS,14.7 µM
same,TGI,SNB-78 CNS,36.3 µM
same,GI50,SR leukemia,6.47 µM
same,TGI,SR leukemia,25.4 µM
same,GI50,SW-620 colon,13.7 µM
same,TGI,SW-620 colon,29.2 µM
same,GI50,TK-10 renal,9.64 µM
same,TGI,TK-10 renal,61.2 µM
same,GI50,U251 CNS,5.7 µM
same,TGI,U251 CNS,19.3 µM
same,GI50,UACC-257 melanoma,5.81 µM
same,TGI,UACC-257 melanoma,17.1 µM
same,GI50,UACC-62 melanoma,3.21 µM
same,TGI,UACC-62 melanoma,12.3 µM
same,GI50,UO-31 renal,6.52 µM
same,TGI,UO-31 renal,20.3 µM
same,GI50,XF 498 CNS,2.26 µM
same,TGI,XF 498 CNS,14.9 µM

# From PubChem BioAssay (NCI)
